Chains of the proteins cited; added tags and fusions are not shown. Lines headed by an entry give the natural chain unless they say otherwise; changes in a name come on top.
UniProt P43490: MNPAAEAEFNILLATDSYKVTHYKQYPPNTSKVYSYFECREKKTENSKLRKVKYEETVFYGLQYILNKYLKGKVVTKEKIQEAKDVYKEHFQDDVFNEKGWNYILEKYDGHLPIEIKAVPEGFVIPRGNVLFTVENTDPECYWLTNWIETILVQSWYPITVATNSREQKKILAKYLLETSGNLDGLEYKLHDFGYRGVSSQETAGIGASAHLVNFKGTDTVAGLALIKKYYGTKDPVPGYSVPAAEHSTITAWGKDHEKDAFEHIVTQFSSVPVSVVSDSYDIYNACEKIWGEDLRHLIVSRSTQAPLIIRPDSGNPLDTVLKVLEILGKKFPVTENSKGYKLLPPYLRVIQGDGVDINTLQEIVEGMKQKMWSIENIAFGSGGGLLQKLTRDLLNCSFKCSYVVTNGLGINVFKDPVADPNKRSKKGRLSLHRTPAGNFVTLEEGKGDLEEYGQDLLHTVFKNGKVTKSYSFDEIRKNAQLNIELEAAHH

In patent publication US9302989B2 (priority 2010, dated 2016):

Molecular target: NAMPT (Homo sapiens (Human), UniProt P43490)
Details: read-out: TR-FRET Binding IC50 (μM) probe 1

Row | Compound | IC50 [µM]
1 | O=C(NCCCc1ccccc1)c1ccc(NC(=O)N2Cc3ccccc3C2)cc1 [Example 1, N-{4-[(3-phenylpropyl)carbamoyl]phenyl}-1,3-dihydro-2H-isoindole-2-carboxamide] | 0.0125
2 | NCc1ccc(CNC(=O)c2ccc(NC(=O)N3Cc4ccc(F)cc4C3)cc2)cc1 [Example 2, N-(4-{[4-(aminomethyl)benzyl]carbamoyl}phenyl)-5-fluoro-1,3-dihydro-2H-isoindole-2-carboxamide] | 0.00278
3 | O=C(NCC1CCCC1)c1ccc(NC(=O)N2Cc3ccc(F)cc3C2)cc1 [Example 4] | 0.00371
4 | O=C(Nc1ccc(C(=O)N2CCN(c3nccc4occc34)CC2)cc1)N1Cc2ccccc2C1 [Example 6, N-(4-{[4-(furo[3,2-c]pyridin-4-yl)piperazin-1-yl]carbonyl}phenyl)-1,3-dihydro-2H-isoindole-2-carboxamide] | 0.00425
5 | N#Cc1ccc2c(c1)CN(C(=O)Nc1ccc(C(=O)N3CCN(c4ccccn4)CC3)cc1)C2 [Example 7, 5-cyano-N-(4-{[4-(pyridin-2-yl)piperazin-1-yl]carbonyl}phenyl)-1,3-dihydro-2H-isoindole-2-carboxamide] | 0.0046
6 | O=C(NCc1ccccn1)c1ccc(NC(=O)N2Cc3ccc(F)cc3C2)cc1 [Example 8, 5-fluoro-N-{4-[(pyridin-2-ylmethyl)carbamoyl]phenyl}-1,3-dihydro-2H-isoindole-2-carboxamide] | 0.00488
7 | O=C(NCc1ccccc1)c1ccc(NC(=O)N2Cc3ccc(F)cc3C2)cc1 [Example 9, N-[4-(benzylcarbamoyl)phenyl]-5-fluoro-1,3-dihydro-2H-isoindole-2-carboxamide] | 0.00502
8 | COc1ccc(CNC(=O)c2ccc(NC(=O)N3Cc4ccccc4C3)cc2)cc1OC [Example 10, N-{4-[(3,4-dimethoxybenzyl)carbamoyl]phenyl}-1,3-dihydro-2H-isoindole-2-carboxamide] | 0.00525
9 | Cc1ccc2c(c1)CN(C(=O)Nc1ccc(C(=O)N3CCN(c4ccccn4)CC3)cc1)C2 [Example 11, 5-methyl-N-(4-{[4-(pyridin-2-yl)piperazin-1-yl]carbonyl}phenyl)-1,3-dihydro-2H-isoindole-2-carboxamide] | 0.00618
10 | O=C(Nc1ccc(C(=O)N2CCN(c3nccc4sccc34)CC2)cc1)N1Cc2ccccc2C1 [Example 12, N-(4-{[4-(thieno[3,2-c]pyridin-4-yl)piperazin-1-yl]carbonyl}phenyl)-1,3-dihydro-2H-isoindole-2-carboxamide] | 0.00656
11 | COc1cccc(CNC(=O)c2ccc(NC(=O)N3Cc4ccccc4C3)cc2)c1OC [Example 13, N-{4-[(2,3-dimethoxybenzyl)carbamoyl]phenyl}-1,3-dihydro-2H-isoindole-2-carboxamide] | 0.00807
12 | O=C(NCCCc1ccccc1)c1ccc(NC(=O)N2Cc3ccc(F)cc3C2)cc1 [Example 14, 5-fluoro-N-{4-[(3-phenylpropyl)carbamoyl]phenyl}-1,3-dihydro-2H-isoindole-2-carboxamide] | 0.00888
13 | O=C(Nc1ccc(C(=O)N2CCN(c3cccnn3)CC2)cc1)N1Cc2ccc(F)cc2C1 [Example 15, 5-fluoro-N-(4-{[4-(pyridazin-3-yl)piperazin-1-yl]carbonyl}phenyl)-1,3-dihydro-2H-isoindole-2-carboxamide] | 0.00991
14 | O=C(NCc1cccc2c1OCCO2)c1ccc(NC(=O)N2Cc3ccccc3C2)cc1 [Example 16, N-{4-[(2,3-dihydro-1,4-benzodioxin-5-ylmethyl)carbamoyl]phenyl}-1,3-dihydro-2H-isoindole-2-carboxamide] | 0.0101
15 | CC(C)CCn1cc(NC(=O)c2ccc(NC(=O)N3Cc4ccc(F)cc4C3)cc2)cn1 [Example 17, 5-fluoro-N-(4-{[1-(3-methylbutyl)-1H-pyrazol-4-yl]carbamoyl}phenyl)-1,3-dihydro-2H-isoindole-2-carboxamide] | 0.0105
16 | O=C(NCc1ccccc1F)c1ccc(NC(=O)N2Cc3ccccc3C2)cc1 [Example 18, N-{4-[(2-fluorobenzyl)carbamoyl]phenyl}-1,3-dihydro-2H-isoindole-2-carboxamide] | 0.011
17 | O=C(Nc1ccc(C(=O)N2CCN(c3ncccn3)CC2)cc1)N1Cc2ccc(F)cc2C1 [Example 19, 5-fluoro-N-(4-{[4-(pyrimidin-2-yl)piperazin-1-yl]carbonyl}phenyl)-1,3-dihydro-2H-isoindole-2-carboxamide] | 0.011
18 | CC(C)CCNC(=O)c1ccc(NC(=O)N2Cc3ccc(F)cc3C2)cc1 [Example 20, 5-fluoro-N-{4-[(3-methylbutyl)carbamoyl]phenyl}-1,3-dihydro-2H-isoindole-2-carboxamide] | 0.011
19 | COc1ccccc1CNC(=O)c1ccc(NC(=O)N2Cc3ccccc3C2)cc1 [Example 21, N-{4-[(2-methoxybenzyl)carbamoyl]phenyl}-1,3-dihydro-2H-isoindole-2-carboxamide] | 0.0112
20 | O=C(Nc1ccc(C(=O)N2CCN(c3ccccn3)CC2)cc1)N1Cc2ccc(F)cc2C1 [Example 22, 5-fluoro-N-(4-{[4-(pyridin-2-yl)piperazin-1-yl]carbonyl}phenyl)-1,3-dihydro-2H-isoindole-2-carboxamide] | 0.0116

Row | Compound | IC50 [µM]
21 | O=C(NCc1cccc(F)c1)c1ccc(NC(=O)N2Cc3ccccc3C2)cc1 [Example 23, N-{4-[(3-fluorobenzyl)carbamoyl]phenyl}-1,3-dihydro-2H-isoindole-2-carboxamide] | 0.0119
22 | O=C(NCCCN1CCCC1=O)c1ccc(NC(=O)N2Cc3ccc(F)cc3C2)cc1 [Example 24, 5-fluoro-N-(4-{[3-(2-oxopyrrolidin-1-yl)propyl]carbamoyl}phenyl)-1,3-dihydro-2H-isoindole-2-carboxamide] | 0.0123
23 | Cc1ccc2c(c1)CN(C(=O)Nc1ccc(C(=O)NCC3CCCC3)cc1)C2 [Example 26, N-{4-[(cyclopentylmethyl)carbamoyl]phenyl}-5-methyl-1,3-dihydro-2H-isoindole-2-carboxamide] | 0.0126
24 | N#Cc1ccc(N2CCN(C(=O)c3ccc(NC(=O)N4Cc5ccccc5C4)cc3)CC2)cc1 [Example 27, N-(4-{[4-(4-cyanophenyl)piperazin-1-yl]carbonyl}phenyl)-1,3-dihydro-2H-isoindole-2-carboxamide] | 0.0138
25 | O=C(NCc1ccc(F)cc1)c1ccc(NC(=O)N2Cc3ccccc3C2)cc1 [Example 28, N-{4-[(4-fluorobenzyl)carbamoyl]phenyl}-1,3-dihydro-2H-isoindole-2-carboxamide] | 0.0141
26 | CC(C)(C)CNC(=O)c1ccc(NC(=O)N2Cc3ccccc3C2)cc1 [Example 31, N-{4-[(2,2-dimethylpropyl)carbamoyl]phenyl}-1,3-dihydro-2H-isoindole-2-carboxamide] | 0.0149
27 | O=C(NCc1ccc(OC(F)(F)F)cc1)c1ccc(NC(=O)N2Cc3ccccc3C2)cc1 [Example 33, N-(4-{[4-(trifluoromethoxy)benzyl]carbamoyl}phenyl)-1,3-dihydro-2H-isoindole-2-carboxamide] | 0.015
28 | O=C(NCc1cc(F)cc(C(F)(F)F)c1)c1ccc(NC(=O)N2Cc3ccccc3C2)cc1 [Example 34, N-(4-{[3-fluoro-5-(trifluoromethyl)benzyl]carbamoyl}phenyl)-1,3-dihydro-2H-isoindole-2-carboxamide] | 0.0151
29 | O=C(Nc1ccc(C(=O)N2CCN(c3cnccn3)CC2)cc1)N1Cc2ccc(F)cc2C1 [Example 35, 5-fluoro-N-(4-{[4-(pyrazin-2-yl)piperazin-1-yl]carbonyl}phenyl)-1,3-dihydro-2H-isoindole-2-carboxamide] | 0.0152
30 | CC(C)CCNC(=O)c1ccc(NC(=O)N2Cc3ccccc3C2)cc1 [Example 36, N-{4-[(3-methylbutyl)carbamoyl]phenyl}-1,3-dihydro-2H-isoindole-2-carboxamide] | 0.0157
31 | COc1ccc2c(c1)CN(C(=O)Nc1ccc(C(=O)NCCCc3ccccc3)cc1)C2 [Example 37, 5-methoxy-N-{4-[(3-phenylpropyl)carbamoyl]phenyl}-1,3-dihydro-2H-isoindole-2-carboxamide] | 0.0161
32 | O=C(NCc1ccc(Cl)cc1)c1ccc(NC(=O)N2Cc3ccccc3C2)cc1 [Example 38, N-{4-[(4-chlorobenzyl)carbamoyl]phenyl}-1,3-dihydro-2H-isoindole-2-carboxamide] | 0.0164
33 | O=C(NCC1CCCC1)c1ccc(NC(=O)N2Cc3ccccc3C2)cc1 [Example 39, N-{4-[(cyclopentylmethyl)carbamoyl]phenyl}-1,3-dihydro-2H-isoindole-2-carboxamide] | 0.0166
34 | COc1cc(CNC(=O)c2ccc(NC(=O)N3Cc4ccccc4C3)cc2)cc(OC)c1OC [Example 40, N-{4-[(3,4,5-trimethoxybenzyl)carbamoyl]phenyl}-1,3-dihydro-2H-isoindole-2-carboxamide] | 0.0171
35 | O=C(Nc1ccc(C(=O)N2CCN(c3ncccn3)CC2)cc1)N1Cc2ccccc2C1 [Example 41, N-(4-{[4-(pyrimidin-2-yl)piperazin-1-yl]carbonyl}phenyl)-1,3-dihydro-2H-isoindole-2-carboxamide] | 0.0174
36 | Cc1ccc2c(c1)CN(C(=O)Nc1ccc(C(=O)NCCC(C)C)cc1)C2 [Example 43, 5-methyl-N-{4-[(3-methylbutyl)carbamoyl]phenyl}-1,3-dihydro-2H-isoindole-2-carboxamide] | 0.0178
37 | O=C(Nc1ccc(C(=O)N2CCN(c3ccc(F)cc3)CC2)cc1)N1Cc2ccccc2C1 [Example 44, N-(4-{[4-(4-fluorophenyl)piperazin-1-yl]carbonyl}phenyl)-1,3-dihydro-2H-isoindole-2-carboxamide] | 0.018
38 | COc1ccc(CNC(=O)c2ccc(NC(=O)N3Cc4ccccc4C3)cc2)cc1 [Example 45, N-{4-[(4-methoxybenzyl)carbamoyl]phenyl}-1,3-dihydro-2H-isoindole-2-carboxamide] | 0.0181
39 | O=C(NCc1cccs1)c1ccc(NC(=O)N2Cc3ccccc3C2)cc1 [Example 46, N-{4-[(2-thienylmethyl)carbamoyl]phenyl}-1,3-dihydro-2H-isoindole-2-carboxamide] | 0.0183
40 | O=C(Nc1ccc(C(=O)N2CCN(c3ncccn3)CC2)cc1)N1Cc2ccc(C(F)(F)F)cc2C1 [Example 47, N-(4-{[4-(pyrimidin-2-yl)piperazin-1-yl]carbonyl}phenyl)-5-(trifluoromethyl)-1,3-dihydro-2H-isoindole-2-carboxamide] | 0.0185
